The assay deals with KYSE-150 esophageal carcinoma cell line. Description: Cell proliferation assay, BrdU incorporation ELISA after 168 hr compound incubation. The assay is classed as cell-based, human. The conditions noted are these: KYSE-150 cells, read-out: Cellular IC50. (In general: Uptake of a labelled nucleoside into DNA is a usual measure of proliferation.)

1 substance from patent publication US11214542B2, “Histone demethylase inhibitors” (CELGENE QUANTICEL RESEARCH, INC., priority 2012, dated 2022) can be followed below.

Broadly, the IC50 is the point on the concentration scale where inhibition reaches its midpoint. Consider “3-{[(6-chloro-1-hydroxy- 1,2,3,4-tetrahydronaphthalen- 1-yl)methyl]amino}pyridine- 4-carboxylic acid [Example 67]”, for which the IC50 is 1 to 10 µM.
